The values below come from PubChem BioAssay AID560 (The Scripps Research Institute Molecular Screening Center, 2006).

Sequences of proteins named here, by UniProt entry; tags and fusion partners are left off.
UniProt P35398, whole entry: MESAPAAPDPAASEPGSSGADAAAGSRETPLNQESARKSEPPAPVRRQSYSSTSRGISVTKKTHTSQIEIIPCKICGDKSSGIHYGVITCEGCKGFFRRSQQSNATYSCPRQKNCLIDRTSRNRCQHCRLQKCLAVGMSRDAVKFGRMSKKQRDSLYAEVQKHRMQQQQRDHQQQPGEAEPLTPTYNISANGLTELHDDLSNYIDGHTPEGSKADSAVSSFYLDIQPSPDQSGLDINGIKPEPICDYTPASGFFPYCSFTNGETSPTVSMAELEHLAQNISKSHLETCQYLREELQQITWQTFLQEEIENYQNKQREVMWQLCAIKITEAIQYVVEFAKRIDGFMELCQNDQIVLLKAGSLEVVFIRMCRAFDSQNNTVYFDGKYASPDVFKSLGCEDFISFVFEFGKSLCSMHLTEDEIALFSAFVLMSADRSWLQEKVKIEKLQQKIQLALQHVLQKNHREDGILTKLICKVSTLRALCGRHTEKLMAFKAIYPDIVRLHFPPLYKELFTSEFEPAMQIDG

The entries are a selection whose mix differs from that of the whole data set. Active and inactive are the calls of the source.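 How the source made its calls: active means activation above the mean of all tested compounds plus 3 SD (cut at about 49% in these data); inactive means the rest.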

The target in this test is Nuclear receptor ROR-alpha (Homo sapiens) (UniProt P35398). Kind of test: RORA ligand-binding domain transcriptional activation – cell-based, luminescence, primary screen (AID 560).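 Further: 0% = DMSO-treated RORA cells and 100% = added signal equal to DMSO minus mock-transfected cells.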 The settings on record: CHO-K1 Gal4-RORA LBD luciferase reporter, at 10 µM, stronger effect = higher value, percent increase over mock-subtracted basal signal. Background: Reporter assays use an easily measured gene product as a stand-in for the process of interest.
For the molecule `CCOP(C)(=S)SCC(=O)NC(C)(CC)C(=O)O` (configuration not stated), the activation was inactive: 6.8%.
As for `Cc1ccccc1NP(C)(=O)Nc1ccccc1C`, the activation is inactive: -5.7%.
Take `CN(C)CCOC(=O)C(O)(c1ccccc1)C1CCCCC1` (configuration not stated): the activation was inactive: -3.9%.
Under `CP(=O)(Nc1ccccc1F)Oc1ccccc1` (configuration not stated) stands inactive: -7.1%; under `CP(=O)(Nc1ccccn1)Oc1ccccc1` (configuration not stated), inactive: -6.7%.
Regarding `COc1ccccc1OP(C)(=O)Nc1ccc(C)c(C)c1` (configuration not stated), the activation is inactive: -0.4%.
Consider `Cc1nc2ccc3ccccc3c2o1.O=[N+]([O-])c1cc([N+](=O)[O-])c(O)c([N+](=O)[O-])c1`, for which the activation is inactive: 2.6%.
Turning to `COc1ccccc1OP(C)(=O)Nc1c(C)n(C)n(-c2ccccc2)c1=O` (configuration not stated), the activation is inactive: 4.5%.
Regarding `CP(=O)(Oc1ccccc1)N1CCOC1=O` (configuration not stated), the activation is inactive: -15%.
Take `CCN(CC)CC(O)COC(=O)C(O)(c1ccccc1)C1CCCCC1` (configuration not stated): the activation is inactive: -11.5%.
With `CP(=O)(NC(=O)Nc1ccccc1)Oc1ccccc1` (configuration not stated), the activation is inactive: -11%.
Under `CCOP(C)(=S)SCC(=O)NC(C)C(=O)O` (configuration not stated) stands inactive: -17.7%; under `CP(=S)(Nn1cnnc1)Oc1ccccc1` (configuration not stated), inactive: -8.9%.
As to `Cc1ccc(NP(C)(=O)Oc2ccccc2)c(C)c1` (configuration not stated), the activation was inactive: 3.7%.
Turning to `COc1ccccc1OP(C)(=O)Nc1ccc(C)cc1` (configuration not stated), the activation is inactive: -1.2%.
The same measure for `Cc1ccc(C)c(NP(C)(=O)Oc2ccccc2)c1` (configuration not stated): inactive: 1.4%; for `Cc1nc2ccc3ccccc3c2s1.O=[N+]([O-])c1cc([N+](=O)[O-])c(O)c([N+](=O)[O-])c1`: inactive: 10%.
